Laboratory results as given in ChEMBL document CHEMBL2321869, “Ion channels as therapeutic targets: a drug discovery perspective” (J Med Chem, 2013).

By UniProt entry, the sequences of proteins in these tests, tags left out.
UniProt O15554, whole entry: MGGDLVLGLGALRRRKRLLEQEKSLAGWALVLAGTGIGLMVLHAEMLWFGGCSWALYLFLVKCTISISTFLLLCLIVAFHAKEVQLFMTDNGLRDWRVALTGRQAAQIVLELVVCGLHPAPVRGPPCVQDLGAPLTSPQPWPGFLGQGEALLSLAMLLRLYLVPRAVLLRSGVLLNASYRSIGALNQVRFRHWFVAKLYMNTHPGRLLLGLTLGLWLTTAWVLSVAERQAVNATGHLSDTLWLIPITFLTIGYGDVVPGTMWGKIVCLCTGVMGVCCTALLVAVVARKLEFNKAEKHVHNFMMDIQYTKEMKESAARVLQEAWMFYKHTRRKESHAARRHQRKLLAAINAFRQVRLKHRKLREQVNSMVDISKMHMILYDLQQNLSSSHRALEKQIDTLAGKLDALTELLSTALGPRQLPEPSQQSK

Tests used:
[1] = target: T1, Gamma-aminobutyric acid receptor subunit alpha-3 (Homo sapiens) (UniProt P34903); experiment: Positive allosteric modulation of GABAA alpha3 (unknown origin) relative to control
T1 sequence (whole entry): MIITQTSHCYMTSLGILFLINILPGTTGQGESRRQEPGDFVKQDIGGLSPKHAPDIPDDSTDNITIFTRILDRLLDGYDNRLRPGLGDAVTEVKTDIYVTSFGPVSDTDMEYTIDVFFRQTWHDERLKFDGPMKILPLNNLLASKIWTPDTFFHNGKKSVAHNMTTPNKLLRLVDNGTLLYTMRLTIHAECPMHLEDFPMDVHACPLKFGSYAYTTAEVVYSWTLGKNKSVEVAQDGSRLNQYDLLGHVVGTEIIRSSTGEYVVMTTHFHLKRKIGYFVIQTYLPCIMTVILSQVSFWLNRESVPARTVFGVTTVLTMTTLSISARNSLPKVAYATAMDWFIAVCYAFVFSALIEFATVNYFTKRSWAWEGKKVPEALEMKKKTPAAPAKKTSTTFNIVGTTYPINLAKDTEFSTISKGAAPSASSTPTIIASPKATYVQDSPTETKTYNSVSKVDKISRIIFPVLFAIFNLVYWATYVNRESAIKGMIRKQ

[2] = target: T2, Gamma-aminobutyric acid receptor subunit alpha-1 (Homo sapiens) (UniProt P14867); experiment: Positive allosteric modulation of GABAA alpha1 (unknown origin) relative to control
T2 sequence (whole entry): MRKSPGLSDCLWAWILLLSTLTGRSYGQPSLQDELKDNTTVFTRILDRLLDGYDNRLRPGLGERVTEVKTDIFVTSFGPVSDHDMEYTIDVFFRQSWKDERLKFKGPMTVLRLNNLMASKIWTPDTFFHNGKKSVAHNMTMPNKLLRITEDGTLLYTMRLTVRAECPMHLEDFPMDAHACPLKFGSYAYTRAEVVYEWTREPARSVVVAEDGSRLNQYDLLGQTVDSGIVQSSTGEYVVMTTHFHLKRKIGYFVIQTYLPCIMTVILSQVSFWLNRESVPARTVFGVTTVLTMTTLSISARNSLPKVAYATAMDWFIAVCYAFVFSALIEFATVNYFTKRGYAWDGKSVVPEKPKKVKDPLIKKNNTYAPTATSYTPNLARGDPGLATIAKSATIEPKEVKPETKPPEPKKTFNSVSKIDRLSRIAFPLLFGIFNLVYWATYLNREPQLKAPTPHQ

[3] = target: T3, Gamma-aminobutyric acid receptor subunit alpha-5 (Homo sapiens) (UniProt P31644); experiment: Positive allosteric modulation of GABAA alpha5 (unknown origin) relative to control
T3 sequence (whole entry): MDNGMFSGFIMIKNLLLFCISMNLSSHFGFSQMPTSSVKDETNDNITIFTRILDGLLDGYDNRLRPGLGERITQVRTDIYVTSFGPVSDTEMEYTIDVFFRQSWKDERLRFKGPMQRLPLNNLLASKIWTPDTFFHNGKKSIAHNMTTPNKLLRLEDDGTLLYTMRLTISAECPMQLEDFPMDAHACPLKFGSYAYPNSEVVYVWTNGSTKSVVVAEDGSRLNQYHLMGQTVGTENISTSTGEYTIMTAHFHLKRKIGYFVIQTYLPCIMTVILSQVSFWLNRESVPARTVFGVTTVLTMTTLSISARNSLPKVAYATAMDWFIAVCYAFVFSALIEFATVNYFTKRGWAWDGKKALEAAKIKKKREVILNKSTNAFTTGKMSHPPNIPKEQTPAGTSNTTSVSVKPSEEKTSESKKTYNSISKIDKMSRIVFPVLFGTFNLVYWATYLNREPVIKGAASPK

[4] = target: T4, Intermediate conductance calcium-activated potassium channel protein 4 (Homo sapiens, UniProt O15554); experiment: Inhibition of Kca 3.1 (unknown origin)
[5] = target: T4, Intermediate conductance calcium-activated potassium channel protein 4; experiment: Inhibition of gardos channel (unknown origin)

Cc1csc(-c2cc(-c3ccncc3)c3n(c2=O)CCCc2ccncc2-3)n1
Activity [1]: 45% | Activity [2]: 0%

Cc1cc(-c2nncc3c(C(C)(C)C)c(OCc4ncnn4C)nn23)no1
Activity [3]: -96%

NC(=O)C(c1ccccc1)(c1ccc(F)cc1)c1ccc(F)cc1 [SENICAPOC]
IC50 [4]: 0.006 µM | IC50 [5]: 11 µM
